## scFv variants of Ab-95 (light chain) against a SARS-CoV-2 spike peptide

The measurements come from Engelhart et al. 2022 (doi:10.1038/s41597-022-01779-4) through the FLAb antibody collection.

Target peptide (SARS-CoV-2 spike, HR2 region): PDVDLGDISGINAS

Parent scFv Ab-95: VH joined to VL by a (GGGGS)3 linker. Changes lie in the light chain CDRs alone.
VH: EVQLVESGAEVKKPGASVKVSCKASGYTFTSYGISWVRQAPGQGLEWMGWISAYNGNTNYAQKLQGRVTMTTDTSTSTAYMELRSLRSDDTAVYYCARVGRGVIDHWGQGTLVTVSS
VL: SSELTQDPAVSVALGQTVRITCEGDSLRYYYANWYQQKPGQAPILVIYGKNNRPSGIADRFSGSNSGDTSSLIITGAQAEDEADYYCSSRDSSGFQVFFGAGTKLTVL

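The library (AAYL52) carries one to three amino acid substitutions per variant, with no insertions or deletions. The assay is AlphaSeq: two haploid yeast populations carry antibody and antigen on their surface. Binding brings cells together so that they mate, and sequencing counts the barcode pairs among the diploids. Each replicate has its own calibration line, from reference interactions of the BCL2 family. Each pool was mated in three replicate cultures.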

The parent's light chain CDRs are EGDSLRYYYAN, GKNNRPS, SSRDSSGFQVF; each variant's own CDRs replace them letter for letter. Each Kd is an estimate from the mating assay, the geometric mean of the replicates in which the pair was seen; lower is stronger. An entry "nd" has no value in the source: the pair was not observed among the diploids in any replicate. This suggests poor binding but is not conclusive. Order: sorted from the lowest average up, undetected variants last. Parent in this assay: reference entry 200 nM, copy in this library 180 nM.

With LGDSLRYYNAN | GKNNRPS | SSRDLSGFQVF the result was 6.7 nM (3 of 3 replicates).
With EGDSLRYEYAR | GKNNRPS | SSRDSSGFQVF the result was 7.6 nM (3 of 3 replicates).
With EGDSLRYYGAN | GKNNRPS | SSRSSSGFQVF the result was 10 nM (3 of 3 replicates).
With EGDSLRYYQAN | GKNNRPS | SSRDASGFQVF the result was 11 nM (3 of 3 replicates).
With EGLSLRYYDAN | GKNNRPS | SSRDSSGFNVF the result was 27 nM (3 of 3 replicates).
With LGDSLRYYGAN | GKNNRPS | SSRDSSGFQVF the result was 73 nM (3 of 3 replicates).
With YGPSLRYYYAN | GKNNRPS | SSRDSSGFQLF the result was 90 nM (3 of 3 replicates).
With EGDSLRYYYAN | GKNNRPS | DSRDSWGFQVF the result was 280 nM (3 of 3 replicates).
With EGDYLRYYYAN | GKNNRPS | SSRDSTGFQVF the result was 650 nM (3 of 3 replicates).
With EGDSLRYYVAN | GKNNRPN | SSRDESGFQVF the result was 770 nM (3 of 3 replicates).
With EGDSLRYYYAN | GKNKRPS | SSRWSSGFQVK the result was 930 nM (1 of 3 replicates).
With EGDWLRYYYAN | GKNNRPS | SSRDTQGFQVF the result was 1.2 µM (2 of 3 replicates).
With EGDSLRYYYAN | GKINRPS | SGRDASGFQVF the result was 1.4 µM (3 of 3 replicates).
With EGDSLRYYYAN | GKNNRFS | SSRDISGFQNF the result was 1.5 µM (2 of 3 replicates).
With EGDSLRYYYCN | GKNNRPS | SSRDSSYKQVF the result was 1.6 µM (3 of 3 replicates).
With EDDSLRYYYAN | GKNNKPS | SSRDSSGFSVF the result was 1.7 µM (3 of 3 replicates).
With FIDSLRYYYAN | GKNNRPS | SSRDSSGFVVF the result was 2.7 µM (3 of 3 replicates).
With EGDSLKYYYAN | GKNNRPS | STRDCSGFQVF the result was 3.4 µM (3 of 3 replicates).
With EGDSLRYYYAN | AKNNYPS | SSRDSSGFQVF the result was 3.8 µM (1 of 3 replicates).
With EGDSLRYYYAN | GKNNRFS | SSRDSSGLQVF the result was 4.7 µM (3 of 3 replicates).
With ESDSLDYYYAN | GKNNRPS | SSRDSSGFQEF the result was 4.9 µM (2 of 3 replicates).
With EGDSLRYYYAM | AKNNRPS | SSRDSSGFDVF the result was 5.2 µM (1 of 3 replicates).
With EGDSLRYYYAQ | GKNNRPS | SSRRSVGFQVF the result was 6.1 µM (3 of 3 replicates).
With EGDSLRPYYAN | GKNRRPS | SSRDSSGFQWF the result was 8.9 µM (1 of 3 replicates).
With GGDSLRVYYAN | GKNNRPS | SSRDSSGFPVF the result was 18 µM (3 of 3 replicates).
With EGDFLRYYYAN | GCNNRPS | SSRDSSGFSVF the result was 20 µM (1 of 3 replicates).
With EGDSQRYYYAN | GKNNRPS | MSFDSSGFQVF the result was 23 µM (1 of 3 replicates).
With EKDSLRYYYAN | GKNNRGS | SSRYSSGFQVF the result was nd (0 of 3 replicates).
With EVDSLRYYYAN | YKNNRPS | SPRDSSGFQVF the result was nd (0 of 3 replicates).
With EGDSLTYYYAN | GKVNGPS | SSRDSSGFQVF the result was nd (0 of 3 replicates).
With EGDSLRYYYAN | GKNNFPS | SIRDSSNFQVF the result was nd (0 of 3 replicates).

Top 4 of the variants detected in all replicates, tightest first:

| CDR-L1 | CDR-L2 | CDR-L3 | apparent Kd | detected |
|---|---|---|---|---|
| LGDSLRYYNAN | GKNNRPS | SSRDLSGFQVF | 6.7 nM | 3 of 3 |
| EGDSLRYEYAR | GKNNRPS | SSRDSSGFQVF | 7.6 nM | 3 of 3 |
| EGDSLRYYGAN | GKNNRPS | SSRSSSGFQVF | 10 nM | 3 of 3 |
| EGDSLRYYQAN | GKNNRPS | SSRDASGFQVF | 11 nM | 3 of 3 |

As a blank, each scFv also met three strains without target: over library AAYL52, 28% of these pairings were detected, typically at 8.2 µM and seldom below 800 nM.